For this series, the system named is NCIN87 gastric tumor tissues. As to the kind of experiment: Tumor tissue infiltration of Alexa488-labeled trastuzumab (immunofluorescence staining). It is filed as in vivo, mice. On the procedure: It was intended to confirm the degree of infiltration and diffusion of the therapeutic material into tumor tissues by performing immunofluorescence staining. After PBS was administered alone, and PBS and trastuzumab (150 μg/mice) or RdB/IL-12/RLX (2.5×10^10 VP) and trastuzumab were co-administered to NCIN87 gastric tumor tissues, the infiltration and distribution aspects of trastuzumab labeled with Alexa488 in tumor tissues were compared.

As for trastuzumab, the “infiltration of trastuzumab away from the margin site of the tumor tissue” value (enlarged region, fluorescence vs distance from margin) is reported as “reduced to the level of the negative control”. The “distribution of trastuzumab relative to the blood vessels of the tumor tissue” value (enlarged view of blood vessels) is “increased only around the blood vessels”. Further, the “distribution of trastuzumab in the tumor tissue” value (trastuzumab 150 μg/mice, Alexa488-labeled, RdB/IL-12/RLX 2.5×10^10 VP) is given as “more intensively distributed around the periphery of the tumor tissue”.
